# Only a part is listed here, and it is no random draw. The source made the active and inactive calls.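 How the source made its calls: active means mean replicate inhibition of at least 70% and a set share of replicates each scoring 70 or more; inconclusive means meets just one of the two criteria; inactive means fails both criteria.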
# The chains behind the UniProt entries cited, without tags or fusion partners. Where a name states a change or a piece, a line headed by the entry shows the natural chain unless it says otherwise.
# UniProt Q61009: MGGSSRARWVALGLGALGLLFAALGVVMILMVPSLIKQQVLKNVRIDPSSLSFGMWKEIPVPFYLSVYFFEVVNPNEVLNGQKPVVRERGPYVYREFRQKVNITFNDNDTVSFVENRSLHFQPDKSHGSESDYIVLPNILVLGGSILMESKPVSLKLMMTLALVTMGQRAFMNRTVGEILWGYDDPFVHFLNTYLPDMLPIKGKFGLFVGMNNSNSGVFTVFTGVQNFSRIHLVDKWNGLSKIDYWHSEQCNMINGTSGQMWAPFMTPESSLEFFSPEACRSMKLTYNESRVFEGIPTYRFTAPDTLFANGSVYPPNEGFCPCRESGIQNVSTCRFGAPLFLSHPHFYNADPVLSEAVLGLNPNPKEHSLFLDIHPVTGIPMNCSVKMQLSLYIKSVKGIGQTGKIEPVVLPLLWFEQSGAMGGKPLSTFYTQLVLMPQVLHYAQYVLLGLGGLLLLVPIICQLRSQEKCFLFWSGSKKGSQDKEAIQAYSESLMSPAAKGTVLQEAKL
# Target: Scavenger receptor class B member 1 (Mus musculus) (UniProt Q61009)
# Assay: mouse SR-BI DiI-HDL uptake blockers – ldlA[mSR-BI] cells, fluorescence, single point, primary screen (AID 488896);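 further: 0% = median of neutral control wells and 100% = median of positive control wells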
# Conditions: ldlA[mSR-BI] CHO cells, 3 h, at 12.5 µM, stronger effect = higher value
row,Compound,inhibition
1,O=P1(Nc2nc3ccc(Cl)cc3s2)COc2ccccc2O1 (centres undefined),inactive: -19.7%
2,CCOc1ccc(C2=NCC(CBr)S2)cc1 (centres undefined),inactive: 0.0845%
3,Cc1ccccc1OP(=O)(Nc1ccccn1)Oc1ccccc1C,inactive: 8.06%
4,CC(NC(=O)COC(=O)C(O)(c1ccccc1)c1ccccc1)c1ccccc1 (centres undefined),inactive: -12.6%
5,CN(C)C(=O)Oc1noc2ccccc12,inactive: -8.48%
6,O=c1c2cc([N+](=O)[O-])ccc2[nH]c2c([N+](=O)[O-])cc([N+](=O)[O-])cc12,inactive: 29.4%
7,COC(=O)c1cc2c(s1)N=C(c1ccccc1)N(C)P2(=O)N1CCOCC1 (centres undefined),inactive: 18.4%
8,CC(=O)NC(SC(=S)N(CC(C)C)CC(C)C)C(Cl)(Cl)Cl (centres undefined),inactive: -12.3%
9,Cc1ccc(OP(=O)(Nc2ccccn2)Oc2ccc(C)cc2)cc1,inactive: -16.6%
10,O=C(OC1CN2CCC1CC2)c1ccccc1 (centres undefined),inactive: -15.7%
11,CCC(=O)N1C2C3N(C(=O)CC)C1C1N(C(=O)CC)C(C(N1C(=O)CC)N3C(=O)CC)N2C(=O)CC,inactive: -9.8%
12,O=P1(N(CCCl)CCCl)OCCC2CCCCN21 (centres undefined),inactive: 12.1%
13,CCNC(=S)/N=C(\N)N[N+](=O)[O-],inactive: -12.1%
14,O=C(NC1CCS(=O)(=O)C1)NP(=S)(Oc1ccccc1)Oc1ccccc1 (centres undefined),inactive: -4.36%
15,c1ccc(-c2nn[nH]n2)c(-c2nn[nH]n2)c1,inactive: -16.3%
16,Cc1ccc(NP(=O)(Oc2cccc(C)c2)Oc2cccc(C)c2)nc1,inactive: -23%
17,CCN(N=Nc1nonc1N)c1nonc1N,inactive: -31.8%
18,Nc1cccc2ccc([As](=O)(O)O)cc12,inactive: -9.39%
19,CCOP(=O)(Nc1ccccc1)OCC,inactive: -14%
20,Cc1cc(SC(NC(=O)c2ccc(F)cc2)C(Cl)(Cl)Cl)ncn1 (centres undefined),inactive: 13.9%
21,Cc1ccc(NP(=O)(Oc2ccccc2F)Oc2ccccc2F)nc1,inactive: 4.6%
22,CN(C(=O)Cc1ccc(Cl)c(Cl)c1)[C@H]1CCCC[C@@H]1N1CCCC1,inactive: -28.6%
23,O=C(O)c1ccccc1[As](=O)(O)O,inactive: 4.64%
24,CC(=O)Nc1ccc([As](=O)(O)O)cc1,inactive: -6.8%
25,CCCC1OP(N)(=O)OCC1CC (centres undefined),inactive: -6.49%
26,O=P(Nc1nc2ccc(Cl)cc2s1)(c1ccccc1)c1ccccc1,inactive: 4.08%
27,CC(C)CC(=O)NC(Sc1ccc(Cl)cc1)C(Cl)(Cl)Cl (centres undefined),inactive: -3.9%

row,Compound,inhibition
1,Nc1cc(N)c2nonc2c1[N+](=O)[O-],inactive: -15.5%
2,Oc1ccccc1CNc1ccccn1,inactive: 4.36%
3,O=C(NC(Sc1ccncn1)C(Cl)(Cl)Cl)c1ccccc1 (centres undefined),inactive: -16.6%
4,COc1ccccc1OP(=O)(Nc1ccc(C)cn1)Oc1ccccc1OC,inactive: -13.5%
5,Clc1ccc(Cl)c(NC2=NCC(CBr)S2)c1 (centres undefined),inactive: 13.3%
6,CN1CCCC(OC(=O)C(c2ccccc2)c2ccccc2)C1 (centres undefined),inactive: -15.3%
7,NC(=O)c1cc([N+](=O)[O-])cc([N+](=O)[O-])c1N,inactive: -12.6%
8,CN(C(=O)Cc1ccc(Cl)c(Cl)c1)[C@H]1CCCC[C@H]1N1CCCC1,inactive: -5.36%
9,Cc1ccc(N/C(=N/P(=O)(N2CCOCC2)N2CCOCC2)N2CCOCC2)cc1,inactive: -30.7%
10,CC(C)=N/N=C(\N)N[N+](=O)[O-],inactive: 0.047%
11,CN(C)C(=O)OCCc1n(C)cc[n+]1C,inactive: -23.9%
12,CC1CCN(C(=O)Oc2c(Cl)cc(Cl)c3cccnc23)CC1,inactive: 9.69%
13,Nc1ccc([As](=O)(O)c2ccc(N)cc2)cc1,inactive: -16.8%
14,C[N+]1=C2C=CC=CC=C2SC12C([N+](=O)[O-])=CC([N+](=O)[O-])=C[C-]2[N+](=O)[O-] (centres undefined),inactive: 13.8%
15,CCN(/C(=N/P(=O)(N1CCOCC1)N1CCOCC1)N1CCOCC1)c1ccc(OC)cc1,inactive: -10.6%
16,O=[N+]([O-])c1cccc2n[nH]nc12,inactive: -45.3%
17,CC(=O)N1C2C3N(C(C)=O)C1C1N(C(C)=O)C(C(N1C(C)=O)N3C(C)=O)N2C(C)=O,inactive: -3.59%
18,Cc1ccc(NP(=O)(Oc2ccccc2)Oc2ccccc2)nc1,inactive: 2.9%
19,CCc1nc2c(n1)c1c(non1O)c1c2no[n+]1[O-],inactive: -8.89%
20,O=[N+]([O-])c1cc([N+](=O)[O-])c(CCNc2ccccc2)c([N+](=O)[O-])c1,inactive: 8.88%
21,COc1ccc(C2=NCC(CBr)S2)cc1 (centres undefined),inactive: 2.65%
22,O=[N+]([O-])c1cccc(NC2=NCC(CBr)S2)c1 (centres undefined),inactive: 2.48%
23,COC(=O)C1(C)COP(=O)(Nc2ccccc2)OC1 (centres undefined),inactive: -10.2%
24,O=C(O)CNc1ccc([As](=O)(O)O)cc1,inactive: -6.76%
25,O=[N+]([O-])c1ncn(CCn2ncnc2[N+](=O)[O-])n1,inactive: 11.9%
26,O=C(Nc1cc([As](=O)(O)O)ccc1O)c1ccccc1,inactive: 6.28%
27,O=P1(N(CCCl)CCCl)OCCCS1 (centres undefined),inactive: -8.71%

# From PubChem BioAssay AID488896 (Broad Institute, 2010)
